Data from patent publication US9782411B2, “{4-[5-(3-chloro-phenoxy)-oxazolo[5,4-d]pyrimidin-2-yl]-2,6-dimethyl-phenoxy}-acetic acid for use in the prevention or treatment of acute kidney injury” (Sanofi, priority 2013, dated 2017).

Protein sequences, listed by entry. Tags and fused reporters are not part of them.
UniProt P21453, whole entry: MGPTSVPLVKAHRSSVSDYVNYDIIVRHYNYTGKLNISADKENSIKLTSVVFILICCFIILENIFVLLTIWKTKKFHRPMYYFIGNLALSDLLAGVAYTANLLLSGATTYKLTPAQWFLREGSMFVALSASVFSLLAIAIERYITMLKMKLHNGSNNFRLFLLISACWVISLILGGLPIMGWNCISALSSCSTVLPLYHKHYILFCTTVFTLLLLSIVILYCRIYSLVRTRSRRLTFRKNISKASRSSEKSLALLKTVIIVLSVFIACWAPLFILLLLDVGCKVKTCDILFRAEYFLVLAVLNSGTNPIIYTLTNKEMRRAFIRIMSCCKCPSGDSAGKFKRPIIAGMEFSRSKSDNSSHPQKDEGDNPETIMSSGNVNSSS

What was measured:
[1] = molecular target: T1, S1P1 (Homo sapiens, UniProt P21453); experiment: PathHunter activated GPCR internalization assay, CHO; format: cell-based; parameters: host or cells: CHO (PathHunter); conditions: 0.5% FBS; starred values are means of 2 separate experiments
Procedure: The PathHunter® Activated GPCR Internalization Assay from DiscoverX was used to determine the EC50 activity of compound A, BAF-312 and fingolimod on the S1P1 receptor. The compounds were tested in assay medium containing 0.5% FBS.

[2] = molecular target: T1, S1P1; experiment: PathHunter β-arrestin assay, CHO; format: cell-based; parameters: host or cells: CHO (PathHunter); conditions: 0.5% FBS; starred values are means of 2 separate experiments
Procedure: The PathHunter® β-Arrestin Assay from DiscoverX was used to determine the EC50 activity of compound A, BAF-312 and fingolimod on S1P1, S1P2, S1P3, S1P4 or S1P5 receptors. The compounds were tested in assay medium containing 0.5% FBS.

[3] = molecular target: T1, S1P1; experiment: FLIPR calcium assay, ChemiScreen cells (GPCRProfiler, Millipore); format: cell-based; conditions: ChemiScreen cells over-expressing human S1P1; 0% proteins in assay media; read-out: EC50, FLIPR, Chem cells
Text: The GPCRProfiler® assay from Millipore was used to determine the EC50 activity of compound A, BAF-312 and fingolimod on S1P1, S1P2, S1P3, S1P4 or S1P5 receptors. These assays used ChemiScreen GPCR stable cell lines.

[4] = molecular target: T1, S1P1; experiment: Impedance assay in HUVEC; format: cell-based; parameters: host or cells: HUVEC (primary); conditions: 2% FBS
Procedure: On day 1, primary cells were seeded into 96-well e-plates pre-coated with collagen-I with 20,000 cells per well. […] After incubation with the S1PR agonists, the cells were carefully washed twice with medium followed by a 5.5 h recovery period. Then the effect of the preceding 1st stimulation on receptor desensitization was assessed using a 2nd stimulation of increasing S1P concentrations (0.1, 1 and 10 μM) and measuring the resulting impedance. All measurements were done at least in triplicates. […] Results are expressed in arbitrary impedance unit as mean+/−s.e.m.

[5] = molecular target: T1, S1P1; experiment: cAMP HTRF assay in forskolin-treated HUVEC; format: cell-based; parameters: host or cells: HUVEC (primary); conditions: 0.1% BSA
Procedure: Cyclic AMP in response to compound A, BAF-312 or fingolimod was assessed in Forskolin-treated HUVEC cells by the mean of the cAMP HTRF® kit (Cisbio). Briefly, HUVEC (Lonza) were seeded at 5×10^3 cells per well into a white 96 multiwell plate (half volume) for 24 hours in EGM2 medium (Lonza). At the beginning of the experiment, EGM2 medium was replaced by assay buffer consisting in HBSS containing Hepes (10 mM), BSA (0.1%) and IBMX (0.5 mM). Cells were allowed to recover during 15 min. Compound A, BAF-312 or fingolimod (10 nM-100 μM) were added to the cells for 15 min followed by addition of forskolin (FSK, 10 μM). After 45 min of FSK treatment, reaction was stopped by addition of MAb anti-cAMP-cryptate and cAMP-D2 for 1 hour. At the end of the incubation, fluorescence was read (Envision, Perkin Elmer) and FRET ratio calculated according to assay kit protocol. The potency of compound A, BAF-312 or fingolimod (EC50) was calculated using the Sanofi BIOST@T-SPEED software according to the logistic equation model.

[6] = molecular target: T2, hS1P1-G-fusion (Homo sapiens, UniProt P21453); experiment: Calcium mobilization (FlipR) assay in CHO cells; format: cell-based; conditions: CHO over-expressing human S1P1 (G-fusion); 0% proteins in assay media
T2 construct: fused on or other part: Modified G-protein alpha subunit (G alpha i4qi4) fused to the receptor's C-terminus to force coupling to calcium release

[7] = molecular target: T1, S1P1; experiment: GTPγS assay, CHO; format: biochemical; parameters: host or cells: CHO (PathHunter); conditions: 0% proteins in assay media

EC50 [1]: 2.72 nM
EC50 [2]: 7 nM
EC50 [3]: 26 nM
EC50 [4]: 0.12 nM
EC50 [5]: 132 nM
EC50 [6]: 0.14 nM
EC50 [7]: 5 nM
Substance: Fingolimod phosphate
